Among the data in PubChem BioAssay AID588591 (National Center for Advancing Translational Sciences (NCATS), 2011) are activity change, negative = inhibition values, retold here.

The chains behind the UniProt entries cited, without tags or fusion partners.
UniProt Q9Y253, whole entry: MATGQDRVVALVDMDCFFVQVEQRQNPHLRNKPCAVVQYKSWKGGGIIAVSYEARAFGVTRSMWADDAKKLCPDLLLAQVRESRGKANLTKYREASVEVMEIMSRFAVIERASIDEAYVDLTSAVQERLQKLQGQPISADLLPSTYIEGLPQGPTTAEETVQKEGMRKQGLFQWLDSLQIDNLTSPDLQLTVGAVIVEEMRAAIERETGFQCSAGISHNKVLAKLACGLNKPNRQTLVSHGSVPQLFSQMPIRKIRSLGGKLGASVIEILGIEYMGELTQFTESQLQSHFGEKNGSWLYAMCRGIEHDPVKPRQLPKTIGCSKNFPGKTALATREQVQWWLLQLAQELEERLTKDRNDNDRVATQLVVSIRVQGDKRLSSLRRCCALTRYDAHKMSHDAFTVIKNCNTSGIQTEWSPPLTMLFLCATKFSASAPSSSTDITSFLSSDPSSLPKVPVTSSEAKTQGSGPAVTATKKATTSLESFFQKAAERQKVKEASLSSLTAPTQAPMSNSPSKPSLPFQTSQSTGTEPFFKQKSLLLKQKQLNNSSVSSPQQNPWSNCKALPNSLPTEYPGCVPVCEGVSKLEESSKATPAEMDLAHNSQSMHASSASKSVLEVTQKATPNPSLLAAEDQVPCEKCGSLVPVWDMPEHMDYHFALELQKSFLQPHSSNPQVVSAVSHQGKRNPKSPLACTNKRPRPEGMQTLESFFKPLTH

The list shows a part of the results, in another mix than the full data. Records with an inconclusive call do not appear. Calls of active or inactive are those of the source. Calls come from the whole dose curve; as a rule, active = well fitted inhibition curve with a large enough effect; inconclusive = small, poorly fitted or top-dose-only effect, or another doubt; inactive = no such curve, though single readings can be large or run the other way.
% is set by controls: 0 for no effect and ±100 for the full control effect.

This assay deals with DNA polymerase eta (Homo sapiens) (UniProt Q9Y253). Kind of assay: qHTS for Inhibitors of Polymerase Eta. The note with it: recombinant Pol eta, fluorescent DNA replication assay; at 114 µM (top of the series).
In the case of `CCC(=O)N(c1ccccc1)C1(COC)CCN(CCn2nnn(CC)c2=O)CC1`, the activity change, negative = inhibition is inactive: -6.06%.
